Values quoted from earlier work, collected in publication PMC5067215.

Amino acid sequences for entries named in this document (tags omitted). Residues count along the entry.
UniProt P04233, 73-296: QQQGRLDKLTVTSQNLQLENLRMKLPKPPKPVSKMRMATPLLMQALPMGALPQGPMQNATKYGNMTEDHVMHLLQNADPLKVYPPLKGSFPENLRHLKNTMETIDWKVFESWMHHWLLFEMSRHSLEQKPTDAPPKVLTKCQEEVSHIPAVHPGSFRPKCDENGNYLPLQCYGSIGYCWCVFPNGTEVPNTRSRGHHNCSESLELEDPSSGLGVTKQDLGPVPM
UniProt P14174, 2-115: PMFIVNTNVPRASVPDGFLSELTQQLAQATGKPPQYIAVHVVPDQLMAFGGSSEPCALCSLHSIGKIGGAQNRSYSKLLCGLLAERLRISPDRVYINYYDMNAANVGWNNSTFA

Target: CD74 (Homo sapiens) (UniProt P04233)

Kd: 1.4 nM
Substance: MIF (from UniProt P14174)
